Molecular target: T1, rice recombinant human serum albumin (HSA) (Homo sapiens, UniProt P02768)
T1 construct: host or cells: rice (recombinant expression host)
Assay: Cannabis vapor streamed through protein solution, cannabinoids adsorbed (Example 1f)
Format: binding
Conditions: vapor of cannabis high in CBD; 1 mg/ml HSA
Description: Vapor of cannabis plant material high in CBD was formed using a volcano vaporizer, and the vapor was streamed through 1 mg/ml solutions of either rice recombinant human serum albumin (HSA), bovine γ-globulin or ovalbumin (hen). The protein solutions were formed using ethanol and water in a 1:2 ratio. The solutions were incubated at 30° C. for 24 hours.

## HSA: rice recombinant human serum albumin
  cannabinoid adsorbed per mg of protein: about 4 micrograms of cannabinoid per mg of protein
